# Experimental data as given in patent US10570458B2, “Methods for diagnosis, prognosis and treatment of primary and metastatic basal-like breast cancer and other cancer types” (ONCONOSTIC TECHNOLOGIES, INC., priority 2009, dated 2020).
# Tested on: patients with primary infiltrating ductal breast cancer
# Test: Univariate Cox regression of 5 year overall survival in patient cohort
# Format: in vivo, human
# Procedure: Review of a prospectively acquired institutional database identified 904 patients with primary infiltrating ductal breast cancer diagnosed between Jan. 1, 1995 and Dec. 31, 2004.
# All statistical analyses were performed using SAS (version 9.1.3, SAS, Cary, N.C.). Criteria used to determine positive or negative status of a specific biomarker were determined prior to performing any statistical analysis. Analysis of categorical variables was performed using χ^2 test and Fisher's exact test. The Mann-Whitney U test was employed to compare non-normal continuos variables. For survival analysis, overall survival (OS) was the outcome measure used. Survival time was calculated as the date of diagnosis until the date of death. Survival times were censored if the patient was still alive on Oct. 15, 2009 (the last date of update of the database). Univariate survival curves were generated by the Kaplan-Meier method (Bland et al. 1998) and significance determined using the log-rank test (Bland J M, Altman D G. The logrank test. BMJ 2004; 328:1073). Multivariate analysis was performed using Cox's proportional hazards analysis. For purposes of evaluating the prognostic significance of each of the above IHC biomarker panel definitions of BLBC, three separate models were constructed for the 3-biomarker, 5-biomarker and 4-biomarker definitions of BLBC. […]
substance,measurement,setting,value
trastuzumab [Herceptin],"Hazard ratio (95% CI), 5 year overall survival","univariate Cox regression, therapy yes vs. no, N 688",1.275 (0.462 3.524)
same,predictor of overall survival,"univariate analysis, adjuvant treatment variable",not significant predictors of overall survival
